ChEMBL document CHEMBL5537193, “Multitargeting HDAC Inhibitors Containing a RAS/RAF Protein Interfering Unit” (J Med Chem, 2024)

Biological target: T1, Polyamine deacetylase HDAC10 (Homo sapiens, UniProt Q969S8)
T1 sequence (Q969S8 whole entry): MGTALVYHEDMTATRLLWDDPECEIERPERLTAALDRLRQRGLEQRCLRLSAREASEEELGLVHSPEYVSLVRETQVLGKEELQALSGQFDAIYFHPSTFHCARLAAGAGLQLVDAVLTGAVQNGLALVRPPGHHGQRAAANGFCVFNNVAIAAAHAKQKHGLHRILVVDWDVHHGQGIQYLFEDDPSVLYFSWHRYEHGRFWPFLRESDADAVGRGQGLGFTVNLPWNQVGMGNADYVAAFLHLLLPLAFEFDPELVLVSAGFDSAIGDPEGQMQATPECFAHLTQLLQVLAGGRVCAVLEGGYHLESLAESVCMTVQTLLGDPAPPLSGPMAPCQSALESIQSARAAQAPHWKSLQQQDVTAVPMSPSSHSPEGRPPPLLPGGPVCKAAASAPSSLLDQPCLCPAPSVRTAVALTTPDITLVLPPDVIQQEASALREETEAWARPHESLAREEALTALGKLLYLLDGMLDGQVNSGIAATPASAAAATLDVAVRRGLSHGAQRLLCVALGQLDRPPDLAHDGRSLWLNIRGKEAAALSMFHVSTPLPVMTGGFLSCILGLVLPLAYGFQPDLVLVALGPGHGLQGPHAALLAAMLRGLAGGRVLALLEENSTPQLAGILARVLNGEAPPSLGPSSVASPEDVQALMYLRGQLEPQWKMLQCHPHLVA
Assay: Inhibition of HDAC10 (unknown origin)

## O=C(CCCCCCC(=O)Nc1ccccc1)NO [VORINOSTAT]
  IC50: 0.349 µM
